{
  "sequences": {"note": "Chains of the proteins cited; added tags and fusions are not shown. Lines headed by an entry give the natural chain unless they say otherwise; changes in a name come on top.", "UniProt P29597": "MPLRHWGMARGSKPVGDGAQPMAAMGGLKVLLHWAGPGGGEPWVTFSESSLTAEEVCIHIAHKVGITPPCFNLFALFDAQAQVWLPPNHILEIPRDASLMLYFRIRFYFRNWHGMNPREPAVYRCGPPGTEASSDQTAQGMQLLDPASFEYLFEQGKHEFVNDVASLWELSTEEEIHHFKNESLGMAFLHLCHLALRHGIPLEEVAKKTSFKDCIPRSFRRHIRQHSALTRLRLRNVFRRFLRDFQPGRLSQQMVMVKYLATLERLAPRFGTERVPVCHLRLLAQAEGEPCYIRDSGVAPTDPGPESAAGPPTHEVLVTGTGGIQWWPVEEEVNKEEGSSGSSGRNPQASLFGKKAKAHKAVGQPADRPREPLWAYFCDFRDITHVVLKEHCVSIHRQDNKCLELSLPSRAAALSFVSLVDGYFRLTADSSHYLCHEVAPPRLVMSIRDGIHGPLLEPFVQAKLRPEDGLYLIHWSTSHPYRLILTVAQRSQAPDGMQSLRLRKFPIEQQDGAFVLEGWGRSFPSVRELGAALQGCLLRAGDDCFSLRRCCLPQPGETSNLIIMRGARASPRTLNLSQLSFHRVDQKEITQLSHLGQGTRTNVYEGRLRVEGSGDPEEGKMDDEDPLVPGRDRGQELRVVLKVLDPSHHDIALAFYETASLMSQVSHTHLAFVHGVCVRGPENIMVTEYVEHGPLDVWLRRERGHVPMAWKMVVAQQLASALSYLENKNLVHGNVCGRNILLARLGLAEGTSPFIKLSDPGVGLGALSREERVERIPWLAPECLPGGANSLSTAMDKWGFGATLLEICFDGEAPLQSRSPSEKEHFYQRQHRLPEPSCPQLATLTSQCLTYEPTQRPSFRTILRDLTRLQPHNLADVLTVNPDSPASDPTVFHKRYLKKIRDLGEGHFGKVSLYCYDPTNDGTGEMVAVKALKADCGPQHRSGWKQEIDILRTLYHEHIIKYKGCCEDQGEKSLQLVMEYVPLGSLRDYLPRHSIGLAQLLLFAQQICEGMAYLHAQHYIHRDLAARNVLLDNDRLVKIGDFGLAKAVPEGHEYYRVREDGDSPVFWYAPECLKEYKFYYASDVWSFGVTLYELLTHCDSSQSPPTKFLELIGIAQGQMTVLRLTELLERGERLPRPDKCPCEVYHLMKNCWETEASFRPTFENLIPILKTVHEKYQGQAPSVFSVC", "UniProt O60674": "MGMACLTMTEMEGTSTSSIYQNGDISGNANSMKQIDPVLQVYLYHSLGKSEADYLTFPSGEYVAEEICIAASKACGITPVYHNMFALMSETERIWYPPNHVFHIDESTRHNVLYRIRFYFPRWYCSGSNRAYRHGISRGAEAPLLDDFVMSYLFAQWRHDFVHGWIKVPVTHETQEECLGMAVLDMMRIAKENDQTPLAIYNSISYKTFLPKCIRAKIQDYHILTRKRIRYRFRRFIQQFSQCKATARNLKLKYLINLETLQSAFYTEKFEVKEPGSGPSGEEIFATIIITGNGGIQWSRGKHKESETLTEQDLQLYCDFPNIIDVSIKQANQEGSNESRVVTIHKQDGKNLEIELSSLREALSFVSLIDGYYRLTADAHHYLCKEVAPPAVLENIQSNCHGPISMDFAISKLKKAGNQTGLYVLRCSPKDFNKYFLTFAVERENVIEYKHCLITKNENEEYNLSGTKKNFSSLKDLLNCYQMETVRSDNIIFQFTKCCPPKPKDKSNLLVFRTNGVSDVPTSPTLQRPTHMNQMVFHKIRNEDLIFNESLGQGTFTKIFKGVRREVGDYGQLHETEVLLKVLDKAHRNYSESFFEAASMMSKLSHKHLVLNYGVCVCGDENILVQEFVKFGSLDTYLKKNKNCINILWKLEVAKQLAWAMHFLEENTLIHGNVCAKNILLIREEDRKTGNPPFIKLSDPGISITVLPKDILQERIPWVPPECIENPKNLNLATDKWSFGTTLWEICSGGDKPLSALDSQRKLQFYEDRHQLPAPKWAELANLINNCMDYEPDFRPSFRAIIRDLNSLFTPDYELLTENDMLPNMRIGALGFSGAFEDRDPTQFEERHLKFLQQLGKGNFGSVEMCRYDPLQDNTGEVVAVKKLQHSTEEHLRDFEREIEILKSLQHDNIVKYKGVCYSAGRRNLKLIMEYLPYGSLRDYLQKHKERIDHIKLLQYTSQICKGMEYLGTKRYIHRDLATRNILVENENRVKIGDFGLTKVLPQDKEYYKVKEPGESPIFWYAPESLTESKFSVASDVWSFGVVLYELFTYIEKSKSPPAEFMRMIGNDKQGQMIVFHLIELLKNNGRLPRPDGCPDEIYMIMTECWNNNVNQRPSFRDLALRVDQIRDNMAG"},
  "source": "ChEMBL document CHEMBL5380830",
  "about": "“Development and Therapeutic Implications of Tyrosine Kinase 2 Inhibitors” (J Med Chem, 2023)",
  "key": {"[1]": {"biological_target": "T1, Non-receptor tyrosine-protein kinase TYK2 (Homo sapiens, UniProt P29597)", "assay": "Inhibition of TYK2 JH1 (unknown origin) at 10 uM relative to control"}, "[2]": {"biological_target": "T1, Non-receptor tyrosine-protein kinase TYK2", "assay": "Binding affinity to human wild-type partial length TYK2 JH2 (G556 to D888 residues) expressed in mammalian expression system by KINOMEscan assay"}, "[3]": {"biological_target": "Tyrosine-protein kinase JAK2 (Homo sapiens, UniProt O60674)", "assay": "Inhibition of JAK2 JH1 (unknown origin) at 10 uM relative to control"}},
  "data": [
    {"smiles": "CNc1cc(Nc2cccn(C3CC(F)(F)C3)c2=O)nc2c(C(=O)N[C@@H]3CCC[C@@H](O)C3)cnn12", "values": [
      {"measurement": "inhibition", "setting": "[1]", "result": "< 50", "unit": "%"},
      {"measurement": "Kd", "setting": "[2]", "result": "< 0.2", "unit": "nM"},
      {"measurement": "inhibition", "setting": "[3]", "result": "< 50", "unit": "%"}
    ]}
  ]
}
